Assay results taken from ChEMBL document CHEMBL1129945, “New 2-piperazinylbenzimidazole derivatives as 5-HT3 antagonists. Synthesis and pharmacological evaluation” (J Med Chem, 1997).

The chains behind the UniProt entries cited, without tags or fusion partners.
UniProt P14842, whole entry: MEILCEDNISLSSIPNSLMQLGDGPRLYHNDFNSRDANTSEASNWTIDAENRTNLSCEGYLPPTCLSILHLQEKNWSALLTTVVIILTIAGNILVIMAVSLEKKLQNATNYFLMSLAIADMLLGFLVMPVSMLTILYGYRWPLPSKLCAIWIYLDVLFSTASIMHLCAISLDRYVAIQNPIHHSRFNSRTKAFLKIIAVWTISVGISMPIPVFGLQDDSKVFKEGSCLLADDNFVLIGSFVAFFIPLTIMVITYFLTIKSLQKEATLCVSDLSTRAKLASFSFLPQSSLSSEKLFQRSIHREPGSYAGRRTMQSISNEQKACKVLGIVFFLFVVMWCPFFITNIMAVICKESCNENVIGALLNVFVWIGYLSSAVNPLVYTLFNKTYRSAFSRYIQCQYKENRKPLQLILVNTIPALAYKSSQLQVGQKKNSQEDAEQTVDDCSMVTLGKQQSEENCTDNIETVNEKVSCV

Biological target: 5-hydroxytryptamine receptor 2A (Rattus norvegicus, UniProt P14842)
Assay: Binding affinity was evaluated in vitro by displacement of [3H]ketanserin from 5-hydroxytryptamine 2A receptor on rat cortical membrane
In short: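 Prefrontal cortex membranes from adult male Wistar rats (220-280 g), final dilution 1:60 wt/vol in 50 mM Tris-HCl. Displacer added in Tris-HCl with 10% ethanol. [3H]ketanserin at 0.8 nM final. Nonspecific binding with 1 µM methysergide. Triplicate competition, 10-12 displacer concentrations, two separate experiments. Filtration and scintillation counting. IC50 and Ki calculated.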

Ki: 0.631 nM
SMILES: Cc1nc2sccn2c(=O)c1CCN1CCC(=C(c2ccc(F)cc2)c2ccc(F)cc2)CC1 [RITANSERIN]
